What was measured:
[1] = target: T1, Aβ oligomer associated with erythrocytes (Homo sapiens, UniProt P05067); test: Flow cytometry assay on erythrocytes in whole blood with FITC-labeled peptide probe; assay type: cell-based; details: first samples (endogenous Aβ oligomer only); subject with Alzheimer's Disease vs normal subject
T1 construct: from tissue; host or cells: whole blood, erythrocytes gated by flow cytometry
Experimental: A first sample containing whole blood is obtained from a subject by venipuncture and collected in EDTA tubes. Peptide probe labeled with FITC (PEP-11) stored in organic solvent is brought to room temperature. The organic solvent is then removed by rotovaporation or air evaporation. The first sample is then diluted in HEPES-buffered saline and subsequently combined with the peptide probe solution. The resulting combination is stored in the dark at room temperature for up to an hour, in order to allow the labeled peptide probe to bind to (e.g., associate with and/or form a complex with) any Aβ oligomer associated with cells present in the first test sample. A second sample containing whole blood is obtained in the same manner as described above. The second sample is then diluted in HEPES-buffered saline and subsequently combined with synthetic Aβ oligomer, allowing the synthetic Aβ oligomer to bind to cells (e.g., associate with and/or form a complex with) present in the second sample or any Aβ oligomer associated with the cells. […] The erythrocytes in the test samples are gated in logarithmic forward/side scatter dot plots, and the fluorescence of the FITC labels are detected by appropriate bandpass filters. […] The samples are processed and analyzed in accordance with the procedure in EXAMPLE 1.

Aβ oligomer [2] = target: T2, Aβ oligomer (Homo sapiens, UniProt P05067); test: Flow cytometry on cerebrospinal fluid; assay type: binding; details: CSF diluted in HEPES-buffered saline
Experimental: Cerebrospinal fluid (CSF) is obtained from a subject by either lumbar puncture or from a previously separated frozen sample (clinical collection). Peptide probe labeled with FITC (PEP-11) stored in organic solvent is brought to room temperature. The organic solvent is removed by rotovaporation or air evaporation. The CSF is diluted in HEPES-buffered saline and combined with the peptide probe solution. The resulting combination is stored in the dark at room temperature for up to an hour, in order to allow the labeled peptide probe to bind to any Aβ oligomer present in the first test sample.
The sample is subjected to a FACScan flow cytometer in TruCount Tubes. Any Aβ oligomer in the test sample is gated in logarithmic forward/side scatter dot plots, and the fluorescence of the FITC labels are detected by appropriate bandpass filters. Complexes comprising labeled peptide probe and Aβ oligomer are detected.

Aβ oligomer [3] = target: T2, Aβ oligomer; test: PLISA using PEP-11 peptide probes on Aβ monomer, oligomer and fiber; assay type: binding
Text: Different aggregate forms of Aβ protein (monomer, oligomer, and fiber) are subjected to PLISA using different PEP-11 peptide probe (Pep11-a, Pep11-b and Pep11-ds) and a control sample without PEP-11 peptide probe. Both Pep11-a and Pep11-b consist of SEQ ID NO:64, at a purity of 86% (standard) and 95% (high), respectively, as determined by high performance liquid chromatography (200 nm, C18, linear gradient). PEP-11ds is also represented by SEQ ID NO:64, but has a disulfide bridge at the two cysteines. High performance liquid chromatography (200 nm, C18, linear gradient) determined the purity of PEP-11ds to be 86.46%.

[4] = target: T3, Aβ oligomer associated with platelets (Homo sapiens, UniProt P05067); test: Flow cytometry on platelets in platelet rich plasma; assay type: cell-based; details: without and with synthetic Aβ oligomer
T3 construct: from tissue; host or cells: platelet rich plasma (platelets)
Experimental: A first sample containing platelet rich plasma (PRP) is obtained by separating whole blood or from a frozen sample of previously separated whole blood. The first sample is verified to contain PRP by flow cytometry (e.g., by detecting CD-41 as a surface marker). Peptide probe labeled with FITC (PEP-11) stored in organic solvent is brought to room temperature. The organic solvent is removed by rotovaporation or air evaporation. The first sample is diluted in HEPES-buffered saline and subsequently combined with the peptide probe solution. The resulting combination is stored in the dark at room temperature for up to an hour, in order to allow the labeled peptide probe to bind to any Aβ oligomer associated with platelets present in the first sample. A second sample containing PRP is obtained in the same manner as described above. The second sample is diluted in HEPES-buffered saline and subsequently combined with synthetic Aβ oligomer, and the synthetic Aβ oligomer is allowed to bind to any Aβ oligomer associated with platelets present in the second sample. Peptide probe labeled with FITC (PEP-11) stored in organic solvent is brought to room temperature. […] The platelets in the test samples are gated in logarithmic forward/side scatter dot plots, and the fluorescence of the FITC labels are detected by appropriate bandpass filters.

Substance: PEP-11: WT17-35 with FITC and d-Arginine at C-Terminal
- FITC signal (fluorescence intensity) of peptide probe-endogenous Aβ oligomer-erythrocyte complexes [1]: great than that corresponding to the normal subject
- detection of complexes comprising labeled peptide probe and Aβ oligomer (Aβ oligomer [2]): are detected
- preferential detection/binding of Aβ oligomer as compared to Aβ monomer or fiber (Aβ oligomer [3]): preferentially binds to Aβ oligomer
- detection of labeled peptide probe-Aβ oligomer-platelet complexes [4]: will be detected

— patent US10139419B2, “Methods for detecting Aβ oligomers” (SYSTEM OF SYSTEMS ANALYTICS, INC., priority 2014, dated 2018)
